The record followed here is US20260234099A1, “Endocannabinoid ligands and related analogs” (Northeastern University, priority 2023, published 2026).

Chains of the proteins cited; added tags and fusions are not shown.
UniProt P20272, whole entry: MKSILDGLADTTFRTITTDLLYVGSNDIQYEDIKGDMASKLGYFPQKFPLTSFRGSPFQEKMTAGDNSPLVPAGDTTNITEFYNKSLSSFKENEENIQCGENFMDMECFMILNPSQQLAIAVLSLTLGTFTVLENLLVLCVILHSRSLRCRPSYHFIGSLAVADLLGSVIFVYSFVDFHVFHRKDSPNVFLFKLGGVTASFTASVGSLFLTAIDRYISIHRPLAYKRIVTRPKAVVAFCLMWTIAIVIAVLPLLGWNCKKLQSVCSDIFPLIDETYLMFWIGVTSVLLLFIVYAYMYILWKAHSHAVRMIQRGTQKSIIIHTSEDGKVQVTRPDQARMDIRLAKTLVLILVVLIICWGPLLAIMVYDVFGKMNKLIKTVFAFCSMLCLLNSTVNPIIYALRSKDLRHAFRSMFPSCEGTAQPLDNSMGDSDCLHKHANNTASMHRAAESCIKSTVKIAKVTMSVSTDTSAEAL

In one test the target is CB1 receptor (Rattus norvegicus, UniProt P20272). Description: CB1 receptor binding affinity (Ki). Here is the method:
(§1) Some disclosed compounds were tested for CB1 and CB2 receptor binding affinity (Tables 1, 2, 3, 4, 5). As used herein “binding affinity” is represented by the Ki value. The Ki value is the affinity constant and describes the affinity of the compound for the receptor. The lower the Ki value, the higher the affinity of the compound for the receptor. A detailed description of the methods used to test “binding affinity” of compounds is given in Makriyannis, et al., US 2007/0135388 the content of which is hereby incorporated by reference.

The next test has as its target CB2 receptor (Homo sapiens, UniProt P34972). Description: CB2 receptor binding affinity (Ki). Details: CB2 receptor Ki; CB2 receptor Ki (PMSF); other: with PMSF. Here is the method: as §1

Like-named read-outs stand apart in the source and are kept apart here.

As for `CCCCC/C=C\C/C=C\C/C=C\C/C=C\CCCC(=O)NCCO` [AEA, N-arachidonoyl ethanolamine, reference compound], the Ki (usually a measure of affinity in units of concentration, obtained from inhibition or displacement) was 0.01 to 0.2 µM at CB1 receptor (with PMSF, read-out: CB1 Receptor Ki with PMSF); > 1 µM on CB1 receptor (without PMSF, read-out: CB1 receptor affinity Ki); 0.01 to 0.2 µM at CB2 receptor.
